The species named for this assay is Homo sapiens. Description: Relative affinity for human vasopressin receptors V1a and V2. The procedure, abridged:
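Ratio from IC50 values: V1a by displacement of 3H-AVP or 3H-[d(CH2)5 1Tyr(Me)2,Arg8]-AVP from human platelet membranes; V2 by displacement of 3H-AVP from membranes of murine fibroblast LV2 cells expressing human V2 receptors.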

`Cc1ccc(F)cc1C(=O)Nc1ccc(C(=O)N2Cc3cccn3Cc3ccccc32)cc1`: the Selectivity was determined as 13.

(Values after ChEMBL document CHEMBL1131007, “5-Fluoro-2-methyl-N-[4-(5H-pyrrolo[2,1-c]-[1, 4]benzodiazepin-10(11H)-ylcarbonyl)-3-chlorophenyl]benzamide (VPA-985): an orally active arginine vasopressin antagonist with selectivity for V2 receptors” (J Med Chem, 1998).)
